Test results published in article PMC10373114, “CDK2 regulates collapsed replication fork repair in CCNE1-amplified ovarian cancer cells via homologous recombination” (NAR Cancer, 2023).
Read-outs that look alike come from different tables or passages of the source.

Amino acid sequences for entries named in this document (tags omitted).
UniProt P50613, whole entry: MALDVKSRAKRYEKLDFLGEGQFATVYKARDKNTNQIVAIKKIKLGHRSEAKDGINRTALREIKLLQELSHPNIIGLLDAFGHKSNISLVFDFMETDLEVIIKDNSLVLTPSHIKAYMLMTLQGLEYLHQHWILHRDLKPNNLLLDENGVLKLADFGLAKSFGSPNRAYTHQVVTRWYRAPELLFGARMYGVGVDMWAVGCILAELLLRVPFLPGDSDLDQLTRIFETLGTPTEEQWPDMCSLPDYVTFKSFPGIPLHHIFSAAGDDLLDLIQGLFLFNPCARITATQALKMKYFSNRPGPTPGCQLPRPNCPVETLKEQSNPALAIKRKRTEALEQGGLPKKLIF
UniProt Q00534, whole entry: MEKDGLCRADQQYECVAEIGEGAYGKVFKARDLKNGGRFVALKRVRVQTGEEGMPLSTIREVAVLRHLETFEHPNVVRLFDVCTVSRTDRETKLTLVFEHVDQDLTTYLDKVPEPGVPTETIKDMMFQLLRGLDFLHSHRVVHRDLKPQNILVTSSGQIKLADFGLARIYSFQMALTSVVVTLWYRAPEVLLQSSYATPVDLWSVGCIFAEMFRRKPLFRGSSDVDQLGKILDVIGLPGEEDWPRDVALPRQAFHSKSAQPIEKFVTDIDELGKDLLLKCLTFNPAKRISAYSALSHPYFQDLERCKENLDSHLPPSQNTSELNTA
UniProt P11802, whole entry: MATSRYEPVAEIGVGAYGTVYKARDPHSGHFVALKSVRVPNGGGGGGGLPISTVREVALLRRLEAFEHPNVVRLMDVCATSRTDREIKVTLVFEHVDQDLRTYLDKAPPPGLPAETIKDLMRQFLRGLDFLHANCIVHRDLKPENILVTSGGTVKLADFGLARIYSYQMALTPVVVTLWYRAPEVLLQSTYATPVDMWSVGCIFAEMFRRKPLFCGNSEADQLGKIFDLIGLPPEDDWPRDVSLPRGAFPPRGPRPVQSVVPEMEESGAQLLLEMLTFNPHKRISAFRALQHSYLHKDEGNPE
UniProt P50750, whole entry: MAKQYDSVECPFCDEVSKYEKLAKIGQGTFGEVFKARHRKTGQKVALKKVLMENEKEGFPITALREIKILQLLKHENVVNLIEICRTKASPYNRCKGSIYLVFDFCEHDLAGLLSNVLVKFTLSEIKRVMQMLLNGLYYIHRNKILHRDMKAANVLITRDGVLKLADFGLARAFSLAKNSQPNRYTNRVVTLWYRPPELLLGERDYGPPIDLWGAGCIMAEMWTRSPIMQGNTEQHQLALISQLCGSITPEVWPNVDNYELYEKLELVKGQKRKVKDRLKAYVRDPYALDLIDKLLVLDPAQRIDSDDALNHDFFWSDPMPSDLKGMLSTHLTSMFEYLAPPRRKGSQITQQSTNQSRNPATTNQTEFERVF
UniProt P06493, whole entry: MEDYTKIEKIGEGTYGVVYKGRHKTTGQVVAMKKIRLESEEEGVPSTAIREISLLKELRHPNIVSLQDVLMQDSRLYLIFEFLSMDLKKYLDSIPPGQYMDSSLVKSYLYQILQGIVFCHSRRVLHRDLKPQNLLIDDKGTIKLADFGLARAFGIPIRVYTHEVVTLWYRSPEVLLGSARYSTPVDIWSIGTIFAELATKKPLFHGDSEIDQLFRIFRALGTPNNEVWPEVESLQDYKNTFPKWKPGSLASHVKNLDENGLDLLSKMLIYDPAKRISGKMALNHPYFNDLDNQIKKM
UniProt P14635, whole entry partner: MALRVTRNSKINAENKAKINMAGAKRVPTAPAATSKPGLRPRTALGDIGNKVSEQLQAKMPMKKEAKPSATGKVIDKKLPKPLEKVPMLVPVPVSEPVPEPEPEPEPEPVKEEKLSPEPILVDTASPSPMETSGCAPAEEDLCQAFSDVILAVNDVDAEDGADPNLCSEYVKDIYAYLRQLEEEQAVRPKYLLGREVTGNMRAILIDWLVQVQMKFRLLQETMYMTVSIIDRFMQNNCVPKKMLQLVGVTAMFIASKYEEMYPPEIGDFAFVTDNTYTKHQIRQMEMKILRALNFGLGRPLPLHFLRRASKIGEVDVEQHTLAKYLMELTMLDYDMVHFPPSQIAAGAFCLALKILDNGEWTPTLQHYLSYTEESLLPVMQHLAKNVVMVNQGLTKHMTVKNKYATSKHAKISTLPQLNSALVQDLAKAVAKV
UniProt P24385, whole entry partner: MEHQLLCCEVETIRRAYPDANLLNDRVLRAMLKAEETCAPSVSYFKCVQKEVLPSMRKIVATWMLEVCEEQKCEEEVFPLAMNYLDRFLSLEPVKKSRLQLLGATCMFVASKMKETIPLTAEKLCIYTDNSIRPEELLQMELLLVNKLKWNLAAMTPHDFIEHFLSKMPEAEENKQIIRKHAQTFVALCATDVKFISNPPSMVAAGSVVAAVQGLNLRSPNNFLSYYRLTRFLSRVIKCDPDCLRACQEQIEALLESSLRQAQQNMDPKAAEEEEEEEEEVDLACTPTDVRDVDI
UniProt O60563, whole entry partner: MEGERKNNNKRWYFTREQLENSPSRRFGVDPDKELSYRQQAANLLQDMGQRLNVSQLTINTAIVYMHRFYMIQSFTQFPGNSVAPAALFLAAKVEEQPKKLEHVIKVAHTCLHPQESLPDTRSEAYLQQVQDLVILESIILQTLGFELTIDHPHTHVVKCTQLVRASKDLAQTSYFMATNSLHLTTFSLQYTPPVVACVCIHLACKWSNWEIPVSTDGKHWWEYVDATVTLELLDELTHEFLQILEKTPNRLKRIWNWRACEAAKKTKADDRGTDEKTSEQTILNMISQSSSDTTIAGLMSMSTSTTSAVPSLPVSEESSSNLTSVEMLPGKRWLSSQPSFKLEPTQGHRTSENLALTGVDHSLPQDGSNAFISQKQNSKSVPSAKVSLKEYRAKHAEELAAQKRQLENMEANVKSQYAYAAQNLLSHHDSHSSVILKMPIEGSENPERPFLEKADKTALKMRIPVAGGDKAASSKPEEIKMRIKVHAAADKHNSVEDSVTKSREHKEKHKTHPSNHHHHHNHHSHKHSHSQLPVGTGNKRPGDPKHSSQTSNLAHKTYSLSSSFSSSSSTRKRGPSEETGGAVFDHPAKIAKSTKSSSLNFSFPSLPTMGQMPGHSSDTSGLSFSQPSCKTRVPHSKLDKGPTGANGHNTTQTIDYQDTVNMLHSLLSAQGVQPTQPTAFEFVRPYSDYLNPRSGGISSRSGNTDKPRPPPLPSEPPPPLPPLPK
UniProt P30281, whole entry partner: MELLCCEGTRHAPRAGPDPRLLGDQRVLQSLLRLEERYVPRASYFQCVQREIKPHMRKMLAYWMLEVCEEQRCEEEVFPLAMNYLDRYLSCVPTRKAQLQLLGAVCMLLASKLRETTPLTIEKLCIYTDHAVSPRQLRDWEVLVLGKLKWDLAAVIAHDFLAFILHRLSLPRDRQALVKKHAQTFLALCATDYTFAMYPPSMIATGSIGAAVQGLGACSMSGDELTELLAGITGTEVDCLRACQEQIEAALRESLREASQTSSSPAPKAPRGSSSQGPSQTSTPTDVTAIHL
UniProt P51946, whole entry partner: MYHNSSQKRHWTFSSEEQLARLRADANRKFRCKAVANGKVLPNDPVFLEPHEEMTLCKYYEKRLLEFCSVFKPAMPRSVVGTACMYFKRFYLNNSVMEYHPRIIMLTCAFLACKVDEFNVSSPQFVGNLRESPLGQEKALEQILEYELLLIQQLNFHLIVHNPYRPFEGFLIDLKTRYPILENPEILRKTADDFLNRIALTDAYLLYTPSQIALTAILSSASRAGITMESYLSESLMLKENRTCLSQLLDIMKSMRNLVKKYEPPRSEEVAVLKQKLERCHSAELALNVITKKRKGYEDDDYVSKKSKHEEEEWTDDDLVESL

Experiments:
OVCAR-3 cells [1] = experiment: CyQuant proliferation assay; type: cell-based, human; conditions: read-out: OVCAR-3 IC50, 5 days, mean of two independent replicates
CDK7/CycH1 = CDK7/CycH1 (Homo sapiens, UniProt P50613); experiment: NanoBRET target engagement assay; conditions: read-out: NanoBRET CDK7/CycH1 IC50; HEK-293T cells transfected with CDK complex
CDK2/CycE1 = CDK2/CycE1 (Homo sapiens, UniProt P24941); experiment: NanoBRET target engagement assay; type: binding; conditions: read-out: NanoBRET CDK2/CycE1 IC50; HEK-293T cells transfected with CDK complex
CDK6/CycD3 = CDK6/CycD3 (Homo sapiens, UniProt Q00534); experiment: NanoBRET target engagement assay; type: binding; conditions: read-out: NanoBRET CDK6/CycD3 IC50; HEK-293T cells transfected with CDK complex
CDK4/CycD1 = CDK4/CycD1 (Homo sapiens, UniProt P11802); experiment: NanoBRET target engagement assay; type: binding; conditions: read-out: NanoBRET CDK4/CycD1 IC50; HEK-293T cells transfected with CDK complex
CDK9/CycT1 = CDK9/CycT1 (Homo sapiens, UniProt P50750); experiment: NanoBRET target engagement assay; type: binding; conditions: read-out: NanoBRET CDK9/CycT1 IC50; HEK-293T cells transfected with CDK complex
CDK1/CycB1 = CDK1/CycB1 (Homo sapiens, UniProt P06493); experiment: NanoBRET target engagement assay; type: binding; conditions: read-out: NanoBRET CDK1/CycB1 IC50; HEK-293T cells transfected with CDK complex
[2] = tested on: homologous recombination (3X-FLAG ACTB reporter); experiment: CRISPR/Cas9 recombination assay; conditions: 25 or 250 nM BLU1851, 10 μM roscovitine; 72 h
[3] = tested on: CtIP bandshift and pRPA S4/8; experiment: Western blot of HR signaling after etoposide; type: cell-based; conditions: 25 or 250 nM, 24 h before 50 μM etoposide 2 h
[4] = tested on: phosphorylation of Rb (CDK2 readout) and lamin A/C (CDK1 readout); experiment: Cellular phosphorylation AlphaLISA assays (pRb T821/826, pLamin S22); conditions: OVCAR-3
OVCAR-3 cells [5] = experiment: Cell cycle profiling by flow cytometry; conditions: 250 nM, 24 hour treatment
MCF-7 cells = experiment: CyQuant proliferation assay; type: cell-based
kinases tested (n = 468) = conditions: fraction of kinases with <10% of control at 3 μM among 468 kinases tested

**Q.** Which IC50 (OVCAR-3 cells [1]) does the source give for NS(=O)(=O)c1ccc(Nc2ncc(C(F)(F)F)c(-c3cnn(C4CCOCC4)c3)n2)c(F)c1 here?
**A.** 0.283 µM

**Q.** And the IC50 (CDK7/CycH1)?
**A.** 2.6 µM

**Q.** What about the IC50 (CDK2/CycE1) of the same compound?
**A.** 0.0023 µM

**Q.** What about the IC50 (CDK6/CycD3) of the same compound?
**A.** 0.168 µM

**Q.** What about the IC50 (CDK4/CycD1) of the same compound?
**A.** 0.215 µM

**Q.** And the IC50 (CDK9/CycT1)?
**A.** 9.4 µM

**Q.** And the IC50 (CDK1/CycB1)?
**A.** 0.337 µM

**Q.** And the “recombination (3X-FLAG product)” value [2]?
**A.** suppressed in OVCAR-3 and FUOV1 cells but not in COV644 or hTERT-RPE1 cells

**Q.** What about the “HR signaling in CCNE1-amplified cell lines” value [3] of the same compound?
**A.** suppressed HR signaling

**Q.** What about the “HR signaling in non-amplified cell lines” value [3] of the same compound?
**A.** little effect

**Q.** What about the “window between cellular CDK2 (pRb) and CDK1 (pLamin) activity” value [4] of the same compound?
**A.** large window between CDK2 and CDK1 activity

**Q.** What about the cell cycle arrest (OVCAR-3 cells [5]) of the same compound?
**A.** arrested cells in G1

**Q.** What about the IC50 (MCF-7 cells; read-out: MCF-7 IC50, proliferation, 5 days, CyQuant, mean of two independent replicates) of the same compound?
**A.** 1.36 µM

**Q.** And the IC50 (MCF-7 cells; read-out: average anti-proliferative IC50 in MCF-7, CDK4-dependent cell line)?
**A.** > 1 µM

**Q.** What about the “Kinome S (10)” value (kinases tested (n = 468)) of the same compound?
**A.** 0.050
